Measurements reported in article PMC8840479, “Discovery of Novel Non-Oxime Reactivators Showing In Vivo Antidotal Efficiency for Sarin Poisoned Mice” (2022).
Values joined by “and” are separate entries in the source; they are usually repeats but may differ in a detail not shown here. Identical values can stand only once.

Tests used:
sarin inhibited hAChE = sarin inhibited hAChE (Homo sapiens, UniProt P22303); assay: In vitro reactivation and reactivation kinetics of sarin inhibited hAChE; details: for Observed first-order rate constant kobs: Sarin-hAChE; for Kd: read-out: Dissociation constant KD, sarin inhibited hAChE-reactivator complex; for Kd / Reactivation rate constant kr / %Reactivation: 25 °C; for Kd / Reactivation rate constant kr: pH 7.4; for Reactivation rate constant kr / Second order reactivation rate constant kr2: sarin inhibited hAChE; for Reactivation rate constant kr: phosphate buffer 0.10 M, nonlinear fit ± SD; for Second order reactivation rate constant kr2: kr2 = kr/KD; for %Reactivation: sarin-hAChE, 30 min
[1] = target: human acetylcholinesterase (hAChE) (Homo sapiens, UniProt P22303); assay: hAChE inhibition experiment (Ellman method); details: 15 min incubation at 25 °C, pH 7.4
VX inhibited hAChE = VX inhibited hAChE (Homo sapiens, UniProt P22303); assay: In vitro reactivation and reactivation kinetics of VX inhibited hAChE; details: for Reactivation rate constant kr / Second order reactivation rate constant kr2: VX inhibited hAChE; for Reactivation rate constant kr / %Reactivation / Kd: 25 °C; for Reactivation rate constant kr: phosphate buffer 0.10 M, nonlinear fit ± SD; for Reactivation rate constant kr / Kd: pH 7.4; for Second order reactivation rate constant kr2: kr2 = kr/KD; for Observed first-order rate constant kobs / %Reactivation: VX-hAChE; for %Reactivation: 30 min; for Kd: read-out: Dissociation constant KD, VX inhibited hAChE-reactivator complex
mice = assay: In vivo experiment 1: acute toxicity of reactivators administered alone; details: 60 mg/Kg ip, reactivator alone (no sarin, no atropine), administrated as acetic salts
[2] = sarin poisoned hAChE, comparison of reactivation efficiency (kr2)

Row | SMILES | Observed first-order rate constant kobs (sarin inhibited hAChE; reactivator 20 μM) | Observed first-order rate constant kobs (sarin inhibited hAChE; reactivator 50 μM) | Observed first-order rate constant kobs (sarin inhibited hAChE; reactivator 100 μM) | Kd (sarin inhibited hAChE) | Reactivation rate constant kr (sarin inhibited hAChE) | Second order reactivation rate constant kr2 (sarin inhibited hAChE) | %Reactivation (sarin inhibited hAChE; reactivator 10 μM) | %Reactivation (sarin inhibited hAChE; reactivator 25 μM) | %Reactivation (sarin inhibited hAChE; reactivator 50 μM) | %Reactivation (sarin inhibited hAChE; reactivator 100 μM) | IC50 [1] | Reactivation rate constant kr (VX inhibited hAChE) | Second order reactivation rate constant kr2 (VX inhibited hAChE) | Observed first-order rate constant kobs (VX inhibited hAChE; reactivator 10 μM) | %Reactivation (VX inhibited hAChE; reactivator 10 μM) | Observed first-order rate constant kobs (VX inhibited hAChE; reactivator 25 μM) | %Reactivation (VX inhibited hAChE; reactivator 25 μM) | Observed first-order rate constant kobs (VX inhibited hAChE; reactivator 50 μM) | %Reactivation (VX inhibited hAChE; reactivator 50 μM) | %Reactivation (VX inhibited hAChE; reactivator 100 μM) | also measured
1 | CCN(CC)Cc1cc(CNc2ccc(C(N)=O)cc2)ccc1O | 10.7±0.9 10-4min-1 | 22.8±1.4 10-4min-1 | 41.2±2.3 10-4min-1 | 163 µM | 10.8 ± 0.6 10^−3min^−1 | 1.1 M⁻¹ s⁻¹ | 5.83±0.86% | 5.86±3.25% | 13.90±0.18% | 22.72±0.88% | > 400 µM and 439 µM | 70.8 ± 17.4 10^−3min^−1 | 5.47 M⁻¹ s⁻¹ | 2.4±0.2 10-3min-1 | 13.21±1.07% | 5.8±0.6 10-3min-1 | 29.74±1.82% | 11.8±1.1 10-3min-1 | 48.26±1.36% | 68.40±0.80% | Kd (VX inhibited hAChE): 216 µM
2 | NC(=O)c1ccc(NCc2ccc(O)c(Cn3ccnc3)c2)cc1 | 22.7±1.3 10-4min-1 | 41.3±3.6 10-4min-1 | 68.4±4.0 10-4min-1 | 94.8 µM | 13.6 ± 1.2 10^−3min^−1 | 2.38 M⁻¹ s⁻¹ | 13.68±0.78% | 14.99±0.40% | 21.84±1.39% | 30.38±1.58% | > 400 µM and 402 µM | 369 ± 154 10^−3min^−1 | 104 M⁻¹ s⁻¹ | 13.6±0.9 10-3min-1 | 19.12±2.12% | 56.8±4.0 10-3min-1 | 34.55±0.25% | 191.1±21.9 10-3min-1 | 68.63±3.39% | 90.62±2.47% | Survival (48 h) (mice): 6/6; Kd (VX inhibited hAChE): 58.8 µM
3 | Oc1ccc(CNc2n[nH]c3ncccc23)cc1Cn1ccnc1 | 15.8±1.0 10-4min-1 | 31.1±1.6 10-4min-1 | 47.2±2.0 10-4min-1 | 73.8 µM | 8.40 ± 0.80 10^−3min^−1 | 1.88 M⁻¹ s⁻¹ | 6.33±0.21% | 7.94±1.94% | 17.10±0.09% | 22.52±0.24% | > 400 µM and 483 µM |  |  | 10.6±0.6 10-3min-1 | 44.74±1.10% | 31.4±2.7 10-3min-1 | 75.66±2.13% | 89.7±10.4 10-3min-1 | 92.85±4.21% | 96.42±0.90% | Survival (48 h) (mice): 6/6
4 | CCN(CC)Cc1cc(CNc2n[nH]c3ncccc23)ccc1O | 13.8±1.1 10-4min-1 | 14.2±0.8 10-4min-1 |  | 5.31 µM | 1.62 ± 0.11 10^−3min^−1 | 5.07 M⁻¹ s⁻¹ | 7.91±2.58% | 7.51±0.24% | 9.12±0.70% |  | < 40 µM and 30.9 µM | 4.9 ± 0.6 10^−3min^−1 | 22 M⁻¹ s⁻¹ | 4.3±0.2 10-3min-1 | 20.76±0.10% | 4.0±0.2 10-3min-1 | 20.29±1.54% |  |  |  | Fold more efficient than L6R4 (sarin inhibited hAChE; [2]): 2 fold; Fold more efficient than L10R4 (sarin inhibited hAChE; [2]): 3 fold; Survival (48 h) (mice): 6/6; Kd (VX inhibited hAChE): 3.7 µM
